Read-outs that look alike come from different tables or passages of the source.
Target: DPP-4 (Mus musculus, UniProt P28843)
Experiment: Plasma DPP-4 activity in mice after oral dosing
Type: in vivo, ICR mice

The chains behind the UniProt entries cited, without tags or fusion partners. Residues count along the entry.
UniProt P28843, 37-760 limits assumed: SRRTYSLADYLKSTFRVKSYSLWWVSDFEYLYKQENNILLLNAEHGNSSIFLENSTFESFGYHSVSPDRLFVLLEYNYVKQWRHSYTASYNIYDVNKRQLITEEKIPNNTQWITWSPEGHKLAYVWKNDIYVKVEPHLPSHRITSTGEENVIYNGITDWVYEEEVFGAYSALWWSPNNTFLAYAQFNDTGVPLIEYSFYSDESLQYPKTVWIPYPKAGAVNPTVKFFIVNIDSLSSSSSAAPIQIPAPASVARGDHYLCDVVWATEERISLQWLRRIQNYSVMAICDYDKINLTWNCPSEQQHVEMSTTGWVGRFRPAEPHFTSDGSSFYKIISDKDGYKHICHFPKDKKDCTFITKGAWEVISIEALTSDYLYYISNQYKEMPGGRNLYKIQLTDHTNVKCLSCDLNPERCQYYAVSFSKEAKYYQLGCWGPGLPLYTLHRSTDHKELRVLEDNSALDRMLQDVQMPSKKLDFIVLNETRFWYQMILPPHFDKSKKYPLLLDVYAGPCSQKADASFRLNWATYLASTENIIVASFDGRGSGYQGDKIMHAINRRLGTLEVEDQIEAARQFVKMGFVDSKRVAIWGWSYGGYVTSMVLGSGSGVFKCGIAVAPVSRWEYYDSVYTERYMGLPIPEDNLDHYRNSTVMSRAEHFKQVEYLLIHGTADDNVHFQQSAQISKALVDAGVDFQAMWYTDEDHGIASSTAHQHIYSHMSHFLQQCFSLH

activity at 1 mg/kg (read-out: DPP-4 Relative activity %, Table 3, mice plasma, oral 1 mg/kg, 1 h after dosing): 58.3 ± 8.4%
activity at 1 mg/kg (read-out: DPP-4 Relative activity %, Table 3, mice plasma, oral 1 mg/kg, 2 h after dosing): 59.9 ± 4%
activity at 1 mg/kg (read-out: DPP-4 Relative activity %, Table 3, mice plasma, oral 1 mg/kg, 4 h after dosing): 60.8 ± 9.8%
activity at 1 mg/kg (read-out: DPP-4 Relative activity %, Table 3, mice plasma, oral 1 mg/kg, 6 h after dosing): 79.5 ± 4.1%
activity at 1 mg/kg (read-out: DPP-4 Relative activity %, Table 3, mice plasma, oral 1 mg/kg, 9 h after dosing): 89.5 ± 5.9%
activity at 1 mg/kg (read-out: DPP-4 Relative activity %, Table 3, mice plasma, oral 1 mg/kg, 12 h after dosing): 93.5 ± 6.5%
activity at 1 mg/kg (read-out: DPP-4 Relative activity %, Table 3, mice plasma, oral 1 mg/kg, 24 h after dosing): 102 ± 6.6%
activity at 1 mg/kg (read-out: DPP-4 Relative activity %, Table 4 Test 1, mice plasma, oral 1 mg/kg, 1 h after dosing): 58.3 ± 8.4%
activity at 1 mg/kg (read-out: DPP-4 Relative activity %, Table 4 Test 1, mice plasma, oral 1 mg/kg, 2 h after dosing): 59.9 ± 4%
activity at 1 mg/kg (read-out: DPP-4 Relative activity %, Table 4 Test 1, mice plasma, oral 1 mg/kg, 4 h after dosing): 60.8 ± 9.8%
activity at 1 mg/kg (read-out: DPP-4 Relative activity %, Table 4 Test 1, mice plasma, oral 1 mg/kg, 6 h after dosing): 79.5 ± 4.1%
activity at 1 mg/kg (read-out: DPP-4 Relative activity %, Table 4 Test 1, mice plasma, oral 1 mg/kg, 9 h after dosing): 89.5 ± 5.9%
activity at 1 mg/kg (read-out: DPP-4 Relative activity %, Table 4 Test 1, mice plasma, oral 1 mg/kg, 12 h after dosing): 93.5 ± 6.5%
activity at 1 mg/kg (read-out: DPP-4 Relative activity %, Table 4 Test 1, mice plasma, oral 1 mg/kg, 24 h after dosing): 102 ± 6.6%
activity at 1 mg/kg (read-out: DPP-4 Relative activity %, Table 4 Test 2, mice plasma, oral 1 mg/kg, 1 h after dosing): 59 ± 2.9%
activity at 1 mg/kg (read-out: DPP-4 Relative activity %, Table 4 Test 2, mice plasma, oral 1 mg/kg, 2 h after dosing): 61.3 ± 4.5%
activity at 1 mg/kg (read-out: DPP-4 Relative activity %, Table 4 Test 2, mice plasma, oral 1 mg/kg, 4 h after dosing): 62.8 ± 5.5%
activity at 1 mg/kg (read-out: DPP-4 Relative activity %, Table 4 Test 2, mice plasma, oral 1 mg/kg, 6 h after dosing): 67.1 ± 2.4%
activity at 1 mg/kg (read-out: DPP-4 Relative activity %, Table 4 Test 2, mice plasma, oral 1 mg/kg, 9 h after dosing): 81 ± 4.3%
activity at 1 mg/kg (read-out: DPP-4 Relative activity %, Table 4 Test 2, mice plasma, oral 1 mg/kg, 12 h after dosing): 78.7 ± 2.1%
activity at 1 mg/kg (read-out: DPP-4 Relative activity %, Table 4 Test 2, mice plasma, oral 1 mg/kg, 24 h after dosing): 95.3 ± 5.8%
activity at 1 mg/kg (read-out: DPP-4 Relative activity %, Table 4 Test 3, mice plasma, oral 1 mg/kg, 1 h after dosing): 60.1 ± 2.6%
activity at 1 mg/kg (read-out: DPP-4 Relative activity %, Table 4 Test 3, mice plasma, oral 1 mg/kg, 2 h after dosing): 54.4 ± 1.2%
activity at 1 mg/kg (read-out: DPP-4 Relative activity %, Table 4 Test 3, mice plasma, oral 1 mg/kg, 4 h after dosing): 57.6 ± 3.3%
activity at 1 mg/kg (read-out: DPP-4 Relative activity %, Table 4 Test 3, mice plasma, oral 1 mg/kg, 6 h after dosing): 60.9 ± 3.8%
activity at 1 mg/kg (read-out: DPP-4 Relative activity %, Table 4 Test 3, mice plasma, oral 1 mg/kg, 9 h after dosing): 70.2 ± 4.6%
activity at 1 mg/kg (read-out: DPP-4 Relative activity %, Table 4 Test 3, mice plasma, oral 1 mg/kg, 12 h after dosing): 72.9 ± 2.4%
activity at 1 mg/kg (read-out: DPP-4 Relative activity %, Table 4 Test 3, mice plasma, oral 1 mg/kg, 24 h after dosing): 94 ± 7%
activity at 3 mg/kg (read-out: DPP-4 Relative activity %, mice plasma, oral 3 mg/kg, 1 h after dosing): 43.9 ± 1.9%
activity at 3 mg/kg (read-out: DPP-4 Relative activity %, mice plasma, oral 3 mg/kg, 2 h after dosing): 45.7 ± 1.2%
activity at 3 mg/kg (read-out: DPP-4 Relative activity %, mice plasma, oral 3 mg/kg, 3 h after dosing): 46.9 ± 1.4%
activity at 3 mg/kg (read-out: DPP-4 Relative activity %, mice plasma, oral 3 mg/kg, 5 h after dosing): 60.9 ± 2.8%
SMILES: N[C@@H](CC(=O)N1CCn2c(nnc2C(F)(F)F)C1)Cc1cc(F)c(F)cc1F [MK0431, reference compound]

Reference: patent publication US20150284385A1 (published 2015)
